Assay results taken from PubChem BioAssay AID602440 (Sanford-Burnham Center for Chemical Genomics, 2012).
This is a selection; strong and weak results do not stand in their true shares. Active and inactive are the calls of the source. No stated cut-off is given here; in the data, active means inhibition mostly above about 40% (no sharp cut-off); inactive means mostly below about 27%.

Chains of the proteins cited; added tags and fusions are not shown.
UniProt Q96LD8, whole entry: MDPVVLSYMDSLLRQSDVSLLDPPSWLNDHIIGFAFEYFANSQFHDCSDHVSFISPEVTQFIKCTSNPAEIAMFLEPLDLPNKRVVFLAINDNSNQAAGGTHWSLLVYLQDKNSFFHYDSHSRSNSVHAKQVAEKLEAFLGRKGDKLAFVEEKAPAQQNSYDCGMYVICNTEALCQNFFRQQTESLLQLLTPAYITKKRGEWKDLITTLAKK

biological target: Sentrin-specific protease 8 (Homo sapiens) (UniProt Q96LD8); experiment: blockers of SENP8 deneddylase activity – biochemical, fluorescence, Nedd8 protein substrate, uHTS, primary screen (AID 602440); conditions: recombinant SENP8, Nedd8 substrate fluorescence; at 20 µM; stronger effect = higher value

| Compound | inhibition |
| --- | --- |
| N/C(=N\O)c1c(N)no[n+]1[O-] | inactive: 28.2% |
| COc1cccc(C(c2nnnn2C(C)(C)C)N2CCC(n3c(=O)[nH]c4ccccc43)CC2)c1OC (configuration not stated) | inactive: 32% |
| CCOC(=O)N1CCC(Nc2ccc(C)cc2)CC1 | inactive: 6.1% |
| CCCCn1nnnc1C(c1cccc(OC)c1OC)N1CCC(n2c(=O)[nH]c3ccccc32)CC1 (configuration not stated) | inactive: 11.8% |
| O=c1[nH]c2ccccc2n1C1CCN(C(c2cccs2)c2nnnn2C2CCCC2)CC1 (configuration not stated) | inactive: 14% |
| O=C(OC1CN2CCC1CC2)C1c2ccccc2C=Cc2ccccc21 (configuration not stated) | inactive: -1.1% |
| O=C(NCC1(N2CCOCC2)CCCCC1)c1cc(Br)ccc1Cl | inactive: 21% |
| COc1cc(C(=O)NCC2(N3CCOCC3)CCCCC2)cc(OC)c1C | inactive: 8.7% |
| CCCCn1nnnc1C(c1ccccc1)N1CCC(n2c(=O)[nH]c3ccccc32)CC1 (configuration not stated) | inactive: 15.9% |
| O=c1[nH]c2ccccc2n1C1CCN(C(c2ccnc3ccccc23)c2nnnn2C2CCCC2)CC1 (configuration not stated) | inactive: 18.2% |
| COc1ccc(C(=O)NCC2(N3CCOCC3)CCCCC2)cc1OC | inactive: 10.1% |
| O=c1[nH]c2ccccc2n1C1CCN(C(c2cccs2)c2nnnn2C2CCCCC2)CC1 (configuration not stated) | inactive: 29.2% |
| CCCN1CCC(Nc2cc(OC)cc(OC)c2)CC1 | inactive: 8.8% |
| O=c1[nH]c2ccccc2n1C1CCN(C(c2ccccc2)c2nnnn2C2CCCC2)CC1 (configuration not stated) | inactive: 14.4% |
| Cc1cc(N(CCCl)CCCl)ccc1C=O | inactive: -32.7% |
| c1ccc(CN2CCC(Nc3ccccc3)CC2)cc1 | inactive: 19.2% |
| CN(C)C1(CNC(=O)c2cccc(C#N)c2)CCCCC1 | inactive: 18.7% |
| CC(C)(C)n1nnnc1C(c1cccc2ccccc12)N1CCC(n2c(=O)[nH]c3ccccc32)CC1 (configuration not stated) | inactive: 21.1% |
| CC(C)(C)OC(=O)N1CCC(N(C(=O)c2ccccc2)c2ccc(Cl)cc2)CC1 | inactive: 6.4% |
| N#Cc1ccc(C(=O)NCC2(N3CCCCC3)CCCCC2)cc1 | inactive: 10.9% |
| CC(C)(C)n1nnnc1C(c1ccnc2ccccc12)N1CCC(n2c(=O)[nH]c3ccccc32)CC1 (configuration not stated) | inactive: 17.3% |
| COc1ccc(C(c2nnnn2C2CCCCC2)N2CCC(n3c(=O)[nH]c4ccccc43)CC2)cc1 (configuration not stated) | inactive: 15.9% |
| CCN1CCC(Nc2cccc(F)c2)CC1 | inactive: 10.4% |
| Cc1ccccc1NC1(C#N)CCN(Cc2ccccc2)CC1 | inactive: 8% |

| Compound | inhibition |
| --- | --- |
| Cn1c(=O)[nH]cc(N(CCCl)CCCl)c1=O | inactive: 8.1% |
| CN(C)c1ccc(C(=O)NCC2(N3CCCCC3)CCCCC2)cc1 | inactive: 2% |
| O=C(NCC1(N2CCCCC2)CCCCC1)c1ccco1 | inactive: 15.3% |
| O=c1[nH]c2ccccc2n1C1CCN(C(c2ccnc3ccccc23)c2nnnn2C2CCCCC2)CC1 (configuration not stated) | inactive: 7% |
| COc1cc(OC)cc(C(=O)NCC2(N3CCCCC3)CCCCC2)c1 | inactive: 6.3% |
| CCC(c1nnnn1C1CCCCC1)N1CCC(n2c(=O)[nH]c3ccccc32)CC1 (configuration not stated) | inactive: 15.2% |
| CC(=O)N(c1ccccc1)C1CCNCC1 | inactive: 9.4% |
| COc1cccc(C(c2nnnn2C2CCCCC2)N2CCC(n3c(=O)[nH]c4ccccc43)CC2)c1OC (configuration not stated) | inactive: 16.9% |
| Cc1ccc(NC2(C#N)CCN(Cc3ccccc3)CC2)cc1 | inactive: -0.3% |
| Fc1ccccc1NC1CCN(Cc2ccccc2)CC1 | inactive: 28.3% |
| Cc1ccc(C(=O)NCC2(N3CCCCC3)CCCCC2)o1 | inactive: 14.6% |
| CCC(CO)(C(=O)OC1CN2CCC1CC2)c1ccccc1 (configuration not stated) | inactive: 22% |
| COc1cccc(C(=O)N(c2cc(C)cc(C)c2)C2CCN(C(=O)OC(C)(C)C)CC2)c1 | inactive: 13.6% |
| COc1cccc(C(c2nnnn2C2CCCC2)N2CCC(n3c(=O)[nH]c4ccccc43)CC2)c1OC (configuration not stated) | inactive: 7.8% |
| COc1cc(OC)cc(C(=O)NCC2(N3CCOCC3)CCCCC2)c1 | inactive: 3.8% |
| CN1CCC(Nc2ccc(Cl)cc2)CC1 | inactive: 10.6% |
| CN1CCC(Nc2ccc(F)c(Cl)c2)CC1 | inactive: 17.7% |
| CCOc1ncccc1C(=O)NCC1(N2CCOCC2)CCCCC1 | inactive: 7.4% |
| CCCOc1ccc(C(=O)NCC2(N(C)C)CCCCC2)cc1 | inactive: 20.4% |
| O=c1[nH]c2ccccc2n1C1CCN(C(c2cc3ccccc3o2)c2nnnn2C2CCCC2)CC1 (configuration not stated) | inactive: 16.5% |
| NN(c1ccccc1)C1CCN(CCc2ccccc2)CC1 | inactive: 39% |
| O=C(O)C1(Nc2ccccc2)CCN(Cc2ccccc2)CC1 | inactive: 10.5% |
| CC(C)(C)OC(=O)N1CCC(Nc2ccccc2)CC1 | inactive: 17.7% |
